Experimental data from patent US8609650B2, “Bridged bicyclic aryl and bridged bicyclic heteroaryl substituted triazoles useful as Axl inhibitors” (Rigel Pharmaceuticals, Inc., priority 2006, dated 2013).

Amino acid sequences for entries named in this document (tags omitted). Residues count along the entry.
UniProt P30530, 26-894 limits assumed: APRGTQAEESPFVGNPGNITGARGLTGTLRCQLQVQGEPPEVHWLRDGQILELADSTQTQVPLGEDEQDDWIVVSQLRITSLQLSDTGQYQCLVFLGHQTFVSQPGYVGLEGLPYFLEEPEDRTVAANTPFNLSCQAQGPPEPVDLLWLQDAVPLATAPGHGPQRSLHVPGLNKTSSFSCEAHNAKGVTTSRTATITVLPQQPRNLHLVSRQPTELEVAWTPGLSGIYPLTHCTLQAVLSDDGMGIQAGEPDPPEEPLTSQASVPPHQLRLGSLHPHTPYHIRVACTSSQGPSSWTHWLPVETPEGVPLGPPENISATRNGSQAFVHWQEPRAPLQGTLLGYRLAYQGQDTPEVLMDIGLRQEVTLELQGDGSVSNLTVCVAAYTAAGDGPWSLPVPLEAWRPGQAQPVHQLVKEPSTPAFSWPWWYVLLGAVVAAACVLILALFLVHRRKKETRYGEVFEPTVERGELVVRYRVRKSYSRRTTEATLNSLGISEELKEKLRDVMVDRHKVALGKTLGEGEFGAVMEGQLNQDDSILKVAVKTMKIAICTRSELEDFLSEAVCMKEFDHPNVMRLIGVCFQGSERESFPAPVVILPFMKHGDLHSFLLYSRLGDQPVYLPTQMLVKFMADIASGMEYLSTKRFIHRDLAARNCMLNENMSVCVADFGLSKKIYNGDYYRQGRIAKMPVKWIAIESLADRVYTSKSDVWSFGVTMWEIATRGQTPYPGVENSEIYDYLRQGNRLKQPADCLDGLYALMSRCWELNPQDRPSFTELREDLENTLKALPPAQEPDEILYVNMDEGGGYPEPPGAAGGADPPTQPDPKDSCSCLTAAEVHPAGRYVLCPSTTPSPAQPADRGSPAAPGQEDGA

Molecular target: Axl (Homo sapiens, UniProt P30530)
Assay: Phospho-Akt In-Cell Western Assay (ability to inhibit Axl activity)
Settings: Hela cells, stimulated by Axl-antibody cross-linking, phospho-Akt chemiluminescence normalized to relative cell number
Procedure: The compounds of the invention were tested in the following assay for their ability to inhibit Axl activity.
Phospho-Akt In-Cell Western Assay […]

## Nc1nc(Nc2ccc(C3CCN(C4CC5CCC4C5)CC3)cc2)nn1-c1ncc2c(n1)C1CCC2C1 (stereo not shown)
  IC50: > 20 µM
